Data on 1 compound can be found in ChEMBL document CHEMBL5512649, “Drug development and potential targets for Cushing's syndrome” (Eur J Med Chem, 2024).

By UniProt entry, the sequences of proteins in these tests, tags left out. Residues count along the entry.
UniProt P19838, 1-433 limits assumed: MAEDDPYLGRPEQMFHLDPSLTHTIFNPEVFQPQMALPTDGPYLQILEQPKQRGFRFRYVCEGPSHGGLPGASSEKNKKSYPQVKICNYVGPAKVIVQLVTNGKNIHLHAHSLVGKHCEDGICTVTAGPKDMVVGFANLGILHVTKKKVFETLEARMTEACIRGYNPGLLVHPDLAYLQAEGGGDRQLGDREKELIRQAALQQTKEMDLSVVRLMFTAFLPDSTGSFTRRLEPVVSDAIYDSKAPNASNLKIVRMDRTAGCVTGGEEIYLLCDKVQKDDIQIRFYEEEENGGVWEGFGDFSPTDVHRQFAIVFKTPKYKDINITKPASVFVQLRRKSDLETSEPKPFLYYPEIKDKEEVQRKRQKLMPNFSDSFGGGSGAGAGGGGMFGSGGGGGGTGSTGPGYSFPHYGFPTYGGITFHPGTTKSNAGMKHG
UniProt Q00653, 1-454 limits assumed: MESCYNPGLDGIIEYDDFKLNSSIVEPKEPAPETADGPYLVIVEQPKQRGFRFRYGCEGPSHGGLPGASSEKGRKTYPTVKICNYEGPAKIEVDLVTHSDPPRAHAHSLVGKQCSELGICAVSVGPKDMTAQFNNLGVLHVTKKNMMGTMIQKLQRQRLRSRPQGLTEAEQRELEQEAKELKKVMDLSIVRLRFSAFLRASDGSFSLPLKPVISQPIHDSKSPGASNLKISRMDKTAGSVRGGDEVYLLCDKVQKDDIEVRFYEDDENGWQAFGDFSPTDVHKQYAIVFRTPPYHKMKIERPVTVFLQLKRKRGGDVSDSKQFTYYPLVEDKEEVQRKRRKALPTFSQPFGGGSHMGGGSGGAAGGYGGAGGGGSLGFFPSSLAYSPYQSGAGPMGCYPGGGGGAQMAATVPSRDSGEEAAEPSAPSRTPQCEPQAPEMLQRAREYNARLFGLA
UniProt Q04206, whole entry: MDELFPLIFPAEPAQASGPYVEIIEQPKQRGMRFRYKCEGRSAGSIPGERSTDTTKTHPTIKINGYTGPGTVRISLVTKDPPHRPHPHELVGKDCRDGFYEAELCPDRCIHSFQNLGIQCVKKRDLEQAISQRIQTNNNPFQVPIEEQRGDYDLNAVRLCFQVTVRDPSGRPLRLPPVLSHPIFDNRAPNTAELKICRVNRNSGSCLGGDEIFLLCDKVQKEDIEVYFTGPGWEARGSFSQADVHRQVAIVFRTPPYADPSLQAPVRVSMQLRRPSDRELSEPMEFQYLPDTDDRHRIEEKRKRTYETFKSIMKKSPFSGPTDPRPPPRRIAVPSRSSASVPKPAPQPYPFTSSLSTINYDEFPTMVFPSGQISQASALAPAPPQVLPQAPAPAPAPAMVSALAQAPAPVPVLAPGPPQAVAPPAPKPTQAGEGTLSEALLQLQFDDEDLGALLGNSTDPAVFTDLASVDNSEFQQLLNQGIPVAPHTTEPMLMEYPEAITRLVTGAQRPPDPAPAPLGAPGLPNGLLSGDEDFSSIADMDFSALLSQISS

Where only a bound is given, the exact number is not on record here.

For the experiment, the target named is Nuclear factor NF-kappa-B complex (Homo sapiens, UniProt P19838+Q00653+Q04206). As to the kind of experiment: Inhibition of NF-kappaB (unknown origin). The experiment is classed as protein-complex assay.

The IC50 is the concentration at which inhibition is half-maximal. Higher therefore signals lower potency. Take `COc1cc(/C=C/C(=O)CC(=O)/C=C/c2ccc(O)c(OC)c2)ccc1O` [CURCUMIN]: the IC50 is at most 1 µM.
